In patent US20170335301A1:

How the values were obtained:
[1] = target: cation-independent mannose-6-phosphate receptor (CIMPR); test: M6P receptor (CIMPR) plate binding assay
[2] = target: cation-independent mannose-6-phosphate receptor (CIMPR); test: CIMPR affinity chromatography of different production batches
[3] = target: cation-independent mannose-6-phosphate receptor (CIMPR); test: CIMPR affinity chromatography, M6P gradient elution, fractions by GAA activity

Row | Substance | pKd [1] | CIMPR receptor binding (%) [2] [%] | % of rhGAA bound to CIMPR column (eluted with M6P) [3] [%] | % of rhGAA that did not bind to the CIMPR [3] [%]
1 | ATB200 rhGAA (recombinant human acid α-glucosidase produced in CHO cell line GA-ATB-200) (from UniProt P10253 70-952) (enzyme) | 8.40 to 8.70 | 70 | – | –
2 | Lumizyme® (alglucosidase alfa, conventional rhGAA) (from UniProt P10253 57-952) (enzyme) | – | – | 22 | 78
3 | Myozyme® (alglucosidase alfa, conventional rhGAA) (from UniProt P10253 57-952) (enzyme) | – | – | 27 | 73

pKd: −log10 of the molar value.
